The record followed here is ChEMBL document CHEMBL6078669, “Stereoisomers of cannabidiols and their pharmacological activities - A potentially novel direction for cannabinoids” (Bioorg Med Chem, 2025).

Protein sequences, listed by entry. Tags and fused reporters are not part of them.
UniProt P34972, whole entry: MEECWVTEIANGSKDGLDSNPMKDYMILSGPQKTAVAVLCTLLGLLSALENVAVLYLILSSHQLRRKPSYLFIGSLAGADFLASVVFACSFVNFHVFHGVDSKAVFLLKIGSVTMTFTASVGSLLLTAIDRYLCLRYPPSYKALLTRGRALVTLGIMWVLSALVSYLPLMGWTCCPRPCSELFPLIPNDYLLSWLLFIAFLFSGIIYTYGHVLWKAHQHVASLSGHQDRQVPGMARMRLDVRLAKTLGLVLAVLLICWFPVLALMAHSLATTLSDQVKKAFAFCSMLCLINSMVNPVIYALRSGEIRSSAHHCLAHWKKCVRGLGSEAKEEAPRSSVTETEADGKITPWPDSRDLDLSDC
UniProt P20272, whole entry: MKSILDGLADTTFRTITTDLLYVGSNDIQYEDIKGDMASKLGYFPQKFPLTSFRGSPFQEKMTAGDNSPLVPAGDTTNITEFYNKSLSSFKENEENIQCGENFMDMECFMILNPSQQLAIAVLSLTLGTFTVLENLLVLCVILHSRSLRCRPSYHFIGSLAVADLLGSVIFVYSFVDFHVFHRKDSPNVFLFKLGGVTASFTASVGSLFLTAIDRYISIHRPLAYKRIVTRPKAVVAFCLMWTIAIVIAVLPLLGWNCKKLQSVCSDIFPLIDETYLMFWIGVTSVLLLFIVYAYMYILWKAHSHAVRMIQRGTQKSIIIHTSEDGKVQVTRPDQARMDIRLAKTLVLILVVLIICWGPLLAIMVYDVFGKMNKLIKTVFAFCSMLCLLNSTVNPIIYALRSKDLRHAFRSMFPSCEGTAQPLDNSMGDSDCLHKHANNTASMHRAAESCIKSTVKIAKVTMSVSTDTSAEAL

The target of one test is Cannabinoid receptor 2 (Homo sapiens, UniProt P34972). As to the kind of experiment: Displacement of [3H]HU-243 from CB2 receptor (unknown origin) extracted from green monkey COS-7 cell membrane assessed as inhibition constant incubated for 90 mins. The class given is cell membranes. Background: In a radioligand displacement assay an active substance lowers the binding of a labelled ligand.

The target of the next test is Cannabinoid receptor 1 (Rattus norvegicus, UniProt P20272). As to the kind of experiment: Displacement of [3H]HU-243 from Sabra rat brain synaptosome CB1 receptor assessed as inhibition constant incubated for 90 mins. The class given is subcellular.

pKi: −log10 of the molar value.

For `C=C(C)[C@@H]1CCC(C)=C[C@H]1c1c(O)cc(CCCCC)cc1O` [CANNABIDIOL], the pKi on Cannabinoid receptor 2 and at Cannabinoid receptor 1 was < 6.00 in each case.
